{"sequences": {"note": "The chains behind the UniProt entries cited, without tags or fusion partners. Residues count along the entry.", "UniProt P54725, 315-361": "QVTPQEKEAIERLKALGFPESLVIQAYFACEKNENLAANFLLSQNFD"}, "source": "paper PMC3802530", "key": {"[1]": {"target": "hHR23A UBA2 UBA2 (Homo sapiens) (UniProt P54725)", "experiment": "NMR"}, "[2]": {"target": "hHR23A UBA2 UBA2 (Homo sapiens) (UniProt P54725)", "conditions": "cited from earlier work"}, "[3]": {"target": "hHR23A UBA2 UBA2 (Homo sapiens) (UniProt P54725)", "conditions": "cited from earlier work", "remark": "listed apart in the source"}}, "note": "Like-named read-outs stand apart in the source and are kept apart here."}
{"substance": "K11-Ub2 distal Ub (from UniProt P0CG47)", "values": [{"measurement": "Kd", "setting": "[1]", "result": 155, "unit": "µM"}]}
{"substance": "K11-Ub2 proximal Ub (from UniProt P0CG47)", "values": [{"measurement": "Kd", "setting": "[1]", "result": 197, "unit": "µM"}]}
{"substance": "K48-Ub2 (from UniProt P0CG47)", "values": [{"measurement": "Kd", "setting": "[2]", "result": 18, "unit": "µM"}]}
{"substance": "K63-Ub2 (from UniProt P0CG47)", "values": [{"measurement": "Kd", "setting": "[3]", "result": "> 200", "unit": "µM"}]}
